The entries are a selection whose mix differs from that of the whole data set. Active and inactive are the calls of the source.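 The calls were made as follows: active = inhibition above a per-plate cutoff, the mean of that plate's test compounds plus 3 SD (cut at about 27% in these data); inactive = the rest.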

Protein sequences, listed by entry. Tags and fused reporters are not part of them.
UniProt P08912, whole entry, looked up: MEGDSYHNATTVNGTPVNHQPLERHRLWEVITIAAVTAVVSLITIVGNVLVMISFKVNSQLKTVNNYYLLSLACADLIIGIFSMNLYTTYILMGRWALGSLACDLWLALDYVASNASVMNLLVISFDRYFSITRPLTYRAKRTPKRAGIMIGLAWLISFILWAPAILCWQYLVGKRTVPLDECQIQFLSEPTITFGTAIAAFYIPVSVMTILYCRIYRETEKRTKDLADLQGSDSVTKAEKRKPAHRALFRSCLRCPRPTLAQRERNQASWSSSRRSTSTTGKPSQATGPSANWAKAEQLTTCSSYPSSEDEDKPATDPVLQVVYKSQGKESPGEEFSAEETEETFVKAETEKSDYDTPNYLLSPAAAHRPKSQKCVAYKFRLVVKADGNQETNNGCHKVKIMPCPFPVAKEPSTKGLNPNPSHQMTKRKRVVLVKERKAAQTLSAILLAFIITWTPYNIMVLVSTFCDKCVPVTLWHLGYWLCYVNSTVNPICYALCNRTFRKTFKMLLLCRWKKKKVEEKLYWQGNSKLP

The experiment concerns the target Muscarinic acetylcholine receptor M5 (Homo sapiens) (UniProt P08912). The experiment is described as follows: CHRM5 blockers of acetylcholine calcium response – CHO cells, Fluo-8 calcium fluorescence, primary screen (AID 624040).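 Also: 0% = acetylcholine EC80 with DMSO and 100% = DMSO without agonist.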 Particulars: CHO-hM5 cells, ACh EC80, at 3 µM, active compounds read high.
By inhibition is commonly meant the relative decrease from the control value, in per cent. As for `CC(C)=N/N=C(\N)N[N+](=O)[O-]`, the inhibition was inactive: -5.39%.

In the case of `CC(C)c1nc(Nc2ccccc2)n(P(=O)(N(C)C)N(C)C)n1`, the inhibition was inactive: 0.36%.

As for `CN(C)C(=O)OCCc1n(C)cc[n+]1C`, the inhibition is inactive: 3.86%.

With `O=P1(N(CCCl)CCCl)OCCCS1` (centres undefined), the inhibition is inactive: -11%.

Regarding `O=C(Nc1cc([As](=O)(O)O)ccc1O)c1ccccc1`, the inhibition was inactive: -1.76%.

On to `O=[N+]([O-])c1ncn(CCn2ncnc2[N+](=O)[O-])n1`, for which the inhibition is inactive: -8.94%.

Take `CC(C)(C)C(=O)NC(Sc1ccncn1)C(Cl)(Cl)Cl` (centres undefined): the inhibition was inactive: 0.8%.

As for `C/C=C1/C[C@@H](C)[C@](O)(CO)C(=O)OCC2=CCN3CC[C@@H](OC1=O)[C@@H]23`, the inhibition is inactive: -0.19%.

In the case of `O=C(O)CNc1ccc([As](=O)(O)O)cc1`, the inhibition is inactive: 3.51%.

`O=[N+]([O-])c1cccc(NC2=NCC(CBr)S2)c1` (centres undefined): the inhibition was inactive: 14.1%.

`COC(=O)C1(C)COP(=O)(Nc2ccccc2)OC1` (centres undefined): the inhibition was inactive: 3.7%.

On to `CN(C)P(=O)(N(C)C)n1c(Nc2ccccc2)nnc1-c1ccccc1`, for which the inhibition is inactive: 4.22%.

For `O=P(Nc1nc2ccc(Cl)cc2s1)(c1ccccc1)c1ccccc1`, the inhibition was inactive: 9.87%.

On to `O=C(O)c1ccccc1[As](=O)(O)O`, for which the inhibition was inactive: -0.62%.

For `CC(=O)Nc1ccc([As](=O)(O)O)cc1`, the inhibition was inactive: -4.71%.

On to `CC(=O)O[C@]1(C)C(=O)OC/C2=C/CN(C)CCC(OC(=O)[C@@](O)(C(C)O)C[C@H]1C)C2=O` (some centres undefined), for which the inhibition was inactive: 10.4%.

As to `CCCC1OP(N)(=O)OCC1CC` (centres undefined), the inhibition was inactive: 4.02%.

Turning to `CCOP(=O)(Nc1ccccc1)OCC`, the inhibition is inactive: -3.56%.

Take `Cc1cc(SC(NC(=O)c2ccc(F)cc2)C(Cl)(Cl)Cl)ncn1` (centres undefined): the inhibition is inactive: -4.78%.

Take `CN(C(=O)Cc1ccc(Cl)c(Cl)c1)[C@H]1CCCC[C@@H]1N1CCCC1`: the inhibition is inactive: 0.42%.

Consider `Cc1ccc(NP(=O)(Oc2ccccc2F)Oc2ccccc2F)nc1`, for which the inhibition is inactive: 17.5%.

As for `Nc1cccc2ccc([As](=O)(O)O)cc12`, the inhibition was inactive: 10.2%.

In the case of `CCN(N=Nc1nonc1N)c1nonc1N`, the inhibition was inactive: 3.34%.

Regarding `CN(C(=O)Cc1ccc(Cl)c(Cl)c1)[C@H]1CCCC[C@H]1N1CCCC1`, the inhibition is inactive: 2.4%.

In the case of `Cc1ccc(N/C(=N/P(=O)(N2CCOCC2)N2CCOCC2)N2CCOCC2)cc1`, the inhibition was inactive: 4.6%.

Regarding `NC(=O)c1cc([N+](=O)[O-])cc([N+](=O)[O-])c1N`, the inhibition was inactive: -0.22%.

Consider `Clc1ccc(Cl)c(NC2=NCC(CBr)S2)c1` (centres undefined), for which the inhibition is inactive: -5.5%.

`CN1CCCC(OC(=O)C(c2ccccc2)c2ccccc2)C1` (centres undefined): the inhibition is active: 55.6%.

Consider `CC(C)[C@H]1C(=O)O[C@@H]2CCN3CC=C(COC(=O)[C@](C)(O)[C@]1(C)O)[C@H]23`, for which the inhibition is inactive: 4.84%.

(Values after PubChem BioAssay AID624040 (The Scripps Research Institute Molecular Screening Center, 2012).)
